## Binding of CDR-mutated scFvs to a peptide of the spike HR2 region

Antigen: PDVDLGDISGINAS, a 14-residue peptide of the SARS-CoV-2 spike HR2 region.

Ab-14 is the parent antibody, in scFv form: VH, then three GGGGS repeats, then VL. The heavy chain is unchanged in all variants.
VH: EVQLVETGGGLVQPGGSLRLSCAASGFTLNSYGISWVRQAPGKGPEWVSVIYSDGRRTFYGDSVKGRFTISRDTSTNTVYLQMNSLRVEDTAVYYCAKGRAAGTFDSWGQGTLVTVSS
VL: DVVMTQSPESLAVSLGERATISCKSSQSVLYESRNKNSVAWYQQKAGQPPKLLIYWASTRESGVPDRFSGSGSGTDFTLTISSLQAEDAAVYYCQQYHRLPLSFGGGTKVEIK

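The starting antibody came from a phage panning campaign against this peptide. Designed CDR sequences, proposed from the first random library and measured here. Their group label is 14L_En_Gibbs (En: ensemble of fine-tuned language models; Gibbs: Gibbs sampling). Affinity was read by AlphaSeq, a pooled yeast mating assay with surface-displayed partners. The frequency of each diploid, read from paired DNA barcodes, reflects how well the two displayed proteins bind. Each replicate has its own calibration line, from reference interactions of the BCL2 family. The assay was run in six technical replicates.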

Variants are written as CDR1, CDR2 and CDR3 of the light chain (limits as in the source). Parent: KSSQSVLYESRNKNSVA, WASTRES, QQYHRLPLS.
Numbers give log10(Kd / nM), so 0 is 1 nM and 3 is 1 µM. Smaller is tighter.
"n.d." marks a missing value. The strain was present, yet no cells mated with the target were sequenced in that replicate, which points to weak or no binding.
Background: pairings of all light chain designs with three empty control strains gave a value in 4% of cases (median 2.64, 5th percentile 1.59). Values in that range, when seen in few replicates, are hard to tell from nonspecific mating. For each scFv, signals with the empty controls are counted beside the result, with their mean in brackets.
A sequence measured in both rounds can read differently, since the two assays cover different ranges.
The authors averaged sequences with at least three values out of six and counted those with two or fewer as poor binders.

{"CDR-L1": "TLQDWGIYGMENMNRIA", "CDR-L2": "ERSKLEM", "CDR-L3": "QQYGRLPLS", "log10 Kd (nM) by replicate": "0.33 / 0.78 / 0.35 / 0.28 / -0.07 / 0.25", "empty controls": "0 of 18"}
{"CDR-L1": "SLELFSLEGDKPVNAVA", "CDR-L2": "DEVVKTS", "CDR-L3": "QQYFRLPLH", "log10 Kd (nM) by replicate": "1.75 / 0.43 / 1.15 / 0.63 / 1.09 / 0.98", "empty controls": "0 of 18"}
{"CDR-L1": "NITGMVEEKGTTTKNIA", "CDR-L2": "EAEFRCG", "CDR-L3": "QQYSRLPLS", "log10 Kd (nM) by replicate": "0.87 / 0.87 / 0.59 / 1.07 / 1.67 / 1.21", "empty controls": "0 of 18"}
{"CDR-L1": "ALNQKGFQLSGMRDSIA", "CDR-L2": "HSDIRLA", "CDR-L3": "QQYYHLPLA", "log10 Kd (nM) by replicate": "0.55 / 0.26 / 0.58 / 0.14 / 0.02 / 0.61", "empty controls": "0 of 18"}
{"CDR-L1": "RLSQTHGGYEKMMNNIA", "CDR-L2": "QGSQKQF", "CDR-L3": "QSYDRLPLS", "log10 Kd (nM) by replicate": "1.30 / 0.91 / n.d. / 0.92 / 2.08 / 1.52", "empty controls": "1 of 18 (0.98)"}
{"CDR-L1": "SLELFSLEGDLPVNAVA", "CDR-L2": "DEVVKLA", "CDR-L3": "QQYFRLPLH", "log10 Kd (nM) by replicate": "1.49 / 1.54 / 1.46 / 1.70 / 1.37 / 1.70", "empty controls": "2 of 18 (2.15)"}
{"CDR-L1": "FLAMALDQDGLIKNNIA", "CDR-L2": "QDNLLEN", "CDR-L3": "QQYERLPLG", "log10 Kd (nM) by replicate": "n.d. / n.d. / n.d. / n.d. / n.d. / n.d.", "empty controls": "0 of 18"}
{"CDR-L1": "AISQMLEPAAQNSSSVA", "CDR-L2": "EADRVTE", "CDR-L3": "QQYHKLPLT", "log10 Kd (nM) by replicate": "1.09 / 1.77 / 2.41 / 2.14 / 1.47 / 1.48", "empty controls": "0 of 18"}
{"CDR-L1": "NMQLQVRNGNNNKYNIA", "CDR-L2": "AEMKREY", "CDR-L3": "QQYNRLPLS", "log10 Kd (nM) by replicate": "n.d. / n.d. / 1.01 / 1.22 / n.d. / n.d.", "empty controls": "0 of 18"}
{"CDR-L1": "HVSNLLTDEMYREYNIA", "CDR-L2": "ETSHVEE", "CDR-L3": "QQYERLPLI", "log10 Kd (nM) by replicate": "1.56 / 1.13 / 1.56 / 1.56 / 1.30 / 1.40", "empty controls": "0 of 18"}
{"CDR-L1": "MLSLNLHDMDRNKNNVA", "CDR-L2": "EMNKKTT", "CDR-L3": "QDYHRLPLA", "log10 Kd (nM) by replicate": "-0.02 / -0.19 / -0.23 / -0.37 / -0.21 / 0.25", "empty controls": "0 of 18"}
{"CDR-L1": "FLHGQLEAGQKNWSAIA", "CDR-L2": "ENSIRVN", "CDR-L3": "QQYNHLPLL", "log10 Kd (nM) by replicate": "n.d. / 2.21 / 1.38 / 1.97 / 1.82 / 0.97", "empty controls": "0 of 18"}
{"CDR-L1": "HIQSNMFGFGGVANNVA", "CDR-L2": "QTNTKMV", "CDR-L3": "QQYSKLPLM", "log10 Kd (nM) by replicate": "1.07 / 0.91 / 1.01 / 1.04 / 1.10 / 1.43", "empty controls": "1 of 18 (3.45)"}
{"CDR-L1": "MISNEQDYNYSATNSVA", "CDR-L2": "DVTERCN", "CDR-L3": "QQYKRLPLT", "log10 Kd (nM) by replicate": "1.04 / 1.11 / 0.56 / 0.55 / 0.94 / 1.01", "empty controls": "0 of 18"}
{"CDR-L1": "KMWDYEYGTNAMNSAIA", "CDR-L2": "NASLESD", "CDR-L3": "QQYDRLPLA", "log10 Kd (nM) by replicate": "1.13 / 1.04 / 1.33 / 0.61 / 0.49 / 1.33", "empty controls": "1 of 18 (3.99)"}
{"CDR-L1": "TIDDEMPSHGLKWNSIA", "CDR-L2": "GVATVLQ", "CDR-L3": "QQYHRLPLS", "log10 Kd (nM) by replicate": "0.96 / 2.10 / 0.61 / 1.09 / 1.10 / 1.21", "empty controls": "1 of 18 (1.35)"}
{"CDR-L1": "QLSMNLEIYGQEQWAVA", "CDR-L2": "MGEMRTE", "CDR-L3": "QQYHKLPLS", "log10 Kd (nM) by replicate": "0.77 / n.d. / n.d. / n.d. / n.d. / n.d.", "empty controls": "0 of 18"}
{"CDR-L1": "NLGFVDDNDNQMMMSIA", "CDR-L2": "DANTVGE", "CDR-L3": "QQYNRLPLA", "log10 Kd (nM) by replicate": "1.19 / 0.91 / 0.34 / 0.53 / 1.60 / 0.19", "empty controls": "0 of 18"}
{"CDR-L1": "QISLNGEDGEPYEYAVA", "CDR-L2": "EGSIADA", "CDR-L3": "QQYHRLPLS", "log10 Kd (nM) by replicate": "2.05 / 2.66 / 2.82 / n.d. / 1.93 / 2.39", "empty controls": "0 of 18"}

2 of these entries, quoted again:

CDR-L1	CDR-L2	CDR-L3	log10 Kd (nM) by replicate	empty controls
NITGMVEEKGTTTKNIA	EAEFRCG	QQYSRLPLS	0.87 / 0.87 / 0.59 / 1.07 / 1.67 / 1.21	0 of 18
QISLNGEDGEPYEYAVA	EGSIADA	QQYHRLPLS	2.05 / 2.66 / 2.82 / n.d. / 1.93 / 2.39	0 of 18

Data: MIT Lincoln Laboratory AlphaSeq set, Li et al. 2023, doi:10.1038/s41467-023-39022-2, as distributed in FLAb.